# Source: patent US4885299A, “2-(2,3-dihydro-2-oxo-3-benzofuranyl)acetic acids antihypoxic and nootropic effects having” (ADIR Et Cie, priority 1987, dated 1989)
# Test system: brain energy-rich compounds (ATP, ADP, AMP)
# Assay: Acute hypoxia in rats; protection of tissue energy-rich compounds in brain (ATP, energy content)
# Format: in vivo, Male Fischer 344 rats (Charles River)
# Conditions: 300 mg/kg I.P., 3% oxygen for 2 minutes
# Method: The compounds of the present invention were tested in respect of their capacity to prolong the survival of cerebral tissue during acute hypoxia in mice, or to maintain the level of tissue energy-rich compounds in rats subjected to a fall in the oxygen supply [Pharmacology of Cerebral Ischemia, p. 334-339 (1968) Elsevier Science Publishers B.V., J. Krieglstein ed.]. […] Forsch. Drug. Res. (1986), 36 II No. 9, p. 1314-1320].
# Whereas the control rats breath a gaseous mixture containing 21% of oxygen and 79% of nitrogen, the rats subjected to hypoxia breath a mixture of 3% oxygen and 97% nitrogen for 2 minutes.
# At the end of the hypoxic period, the animals are rapidly sacrificed by total immersion in liquid nitrogen. The frozen brain is removed and the energy-rich compounds (ATP, ADP, AMP) are extracted and assayed by the luciferin luminescence method.
# The tissue energy content (EC) is calculated according to ATKINSON's formula: [formula]
smiles,measurement,value
"NC(=O)CN1CCCC1=O [Piracetam, piracetam, reference compound]","% inhibition of the effects of hypoxia, ATP",3.9%
